Assay results as given in patent US12565660B2, “Immunomodulating transgenic plants and related methods” (AGRIVIDA, INC., priority 2017, dated 2026).

Details: 10 minute digestion, 37° C., pH 1.2, 2630 Units pepsin per milliliter

bovine serum albumin [BSA]
degradation in simulated gastric fluid (SGF): significantly degraded
